In patent US11008622B2, “Biomarker for predicting sensitivity to EGFR-targeting agent, and use thereof” (THE ASAN FOUNDATION, priority 2014, dated 2021):

Assays:
[1] = system: p-ERK protein, cleaved caspase-3; experiment: Sub-signaling mechanism by western blot; format: cell-based, human; details: KM12C, RON expression inhibited by siRNA and cetuximab treated; FIG. 5D
Method: (§1) In order to perform the western blot, a protein separated from each cell was separated through SDS-PAGE and transferred to polyscreen membranes (New England Nuclear, Boston, Mass., USA), reacted for 12 hours at 4° C. by using various antibodies (anti-phospho RON (MyBioSource, San Diego, Calif., USA), anti-phospho Tyrosine, anti-EGFR, anti-phospho EGFR (Cell signaling Technology, Beverly, Mass., USA), anti-RON, and anti-r-tubulin (Santa Cruz Biotechnology), and then washed with a 1×TBS-T buffer solution for 10 minutes three times. A suitable anti-rabbit-HRP or anti-mouse-HRP secondary antibody reacted for 2 hours at room temperature and was washed with the 1×TB S-T buffer solution for 10 minutes three times to verify the expression of the protein by using an ECL solution (Amersham, Buckinghamshire, UK).
The inventors observed a sub-signaling mechanism through western blot by treating cetuximab after artificially inhibiting the RON by the siRNA technique in the KM12C colon cancer cell line having the resistance to cetuximab in which the RON was activated.

[2] = system: SW48 colon cancer cell line; experiment: Cell death for cetuximab after overexpressing RON active forms; format: cell-based, human; details: SW48 overexpressing Δ160 and Δ155; FIG. 5F
Excerpt: (§2) The inventors observed the cell death for cetuximab after overexpressing Δ160 and Δ155 as the active forms of the RON in the CaCo-2 and SW48 colon cancer cell lines having the susceptibility to cetuximab in which the RON was not activated.

[3] = system: KM12C colon cancer cell line; experiment: Cell death by trypan blue cell counting; format: cell-based, human
Method: (§3) After 5, 10, and 20 μg/ml of cetuximab (Merck & Co., Inc, NJ, USA) were treated for 48 hours in CaCo2 and LIM1215 colon cancer cell lines in which the RON was not activated and a KM12C cell line in which the RON was activated, a cell solution was collected to perform trypan blue counting (FIG. 3A).
KM12C colon cancer cell line in which the RON was activated was treated with RON siRNA for 48 hours, was treated with 20 μg/ml of cetuximab for 48 hours, and then the cell solution was collected to perform trypan blue counting. […]
(§4) Accordingly, in order to analyze the cell death degree according to the RON activity when cetuximab was treated, as described above, in order to verify the cetuximab reactivity in the CaCo-2 colon cancer cell line and the LIM1215 cell line which had KRAS, NRAS, and BRAF wild type genes and had susceptibility to cetuximab and in which the RON was not activated, and the KM12C colon cancer cell line in which the RON was activated and which had the resistance to cetuximab, the cell death was analyzed by trypan blue cell counting.
The inventors analyzed the cell death by trypan blue cell counting by treating cetuximab after artificially inhibiting the RON by the siRNA technique in the KM12C colon cancer cell line having the resistance to cetuximab in which the RON was activated. […]

[4] = system: RON knockout KM12C xenograft; experiment: Tumor inhibition in in vivo xenograft model using RON knockout isogenic cell line; details: RON knockout xenograft mouse vs parent cell line; FIG. 6
Excerpt: The inventors observed the tumor inhibition effect by cetuximab in an in vivo xenograft model by using a cell line in which the RON gene was knocked-out by using the CRISPR/Cas9 method in the KM12C colon cancer cell line having resistance to cetuximab in which the RON was activated.

[5] = system: CaCo-2 colon cancer cell line; experiment: Cell death by trypan blue cell counting; format: cell-based, human
Method: as §3, §4, §2

[6] = system: RON knockout KM12C colon cancer cell line; experiment: Cell growth by colony formation method in RON knockout isogenic cell line; format: cell-based, human; details: KM12C RON knockout vs parent cell line; FIG. 5I
Excerpt: The inventors observed the cell growth for cetuximab by a colony formation method by using a cell line in which the RON gene was knocked-out by using the CRISPR/Cas9 method in the KM12C colon cancer cell line having resistance to cetuximab in which the RON was activated.

EGFR = EGFR activation degree by western blot; format: cell-based, human; details: FIG. 5A
Method: as §1
Accordingly, the activation degree of the EGFR was observed by western blot by treating cetuximab for each time after artificially inhibiting the RON by an siRNA technique in the KM12C colon cancer cell line which had KRAS, NRAS, and BRAF wild type genes, had resistance to cetuximab and in which the RON was activated, as described above, in order to analyze the activity inhibition of the EGFR through the RON activity inhibition and the EGFR activity inhibition for cetuximab.

[7] = system: KM12C colon cancer cell line; details: KRAS, NRAS, BRAF wild type, Todd M. et al, PLOS 2014, FIG. 9; cited from earlier work
[8] = system: RON knockout KM12C colon cancer cell line; experiment: Cell death in RON knockout isogenic cell line; format: cell-based, human; details: KM12C RON knockout (CRISPR/Cas9) #1 clone vs parent cell line; cetuximab for each concentration; FIG. 5H
Excerpt: The inventors observed the cell death by treating cetuximab for each concentration in #1 clone with good RON knockout efficiency, in order to analyze the cell death and the cell growth for cetuximab by preparing a cell line in which the RON gene was knockout by using a CRISPR/Cas9 method in the KM12C colon cancer cell line having resistance to cetuximab in which the RON was activated.

[9] = system: CaCo-2 colon cancer cell line; experiment: Cell growth by colony formation method; format: cell-based, human; details: FIG. 5G
Excerpt: The inventors observed the cell growth for cetuximab by a colony formation method by overexpressing the Δ160 variant as the active form of the RON in the CaCo-2 colon cancer cell line having the susceptibility to cetuximab in which the RON was not activated.

[10] = system: CaCo-2 colon cancer cell line; details: KRAS, NRAS, BRAF wild type, Giovanni B. et al, PLOS 2012; cited from earlier work
colon cancer patients = experiment: Relationship between cetuximab reactivity and RON activity in colon cancer patients; format: in vivo, human; details: colon cancer patients (double positive) prescribed with cetuximab; FIG. 8
Method: In order to analyze the RON activity, after a protein was extracted from a cell line or a colon cancer patient's tissue (by using a RIPA buffer), activity was verified by using a phospho-RON antibody (Mybiosource, MBS462024, dilution factor 1:1000) in 20 μg of the cells and 50 μg of the colon cancer patient's tissue.
Further, after immunoprecipitation was performed with the RON antibody (santa cruz; sc-322, Lot#G1514, 2 μg, incubation of 2 days) (by using 300 μg of the cell line and the colon cancer patient's tissue), phosphorylation was verified by a phospho-tyrosine antibody (Cell signaling; 9411, dilution factor 1:1000). In order to verify RONΔ155 and RONΔ160 (alternative splicing form) which were the RON active forms, RNA was extracted from the colon cancer cell line or the colon cancer patient's tissue with a trizol reagent.
The inventors analyzed a relationship between cetuximab reactivity and RON activity.

LIM1215 cell line = experiment: Cell death by trypan blue cell counting; format: cell-based, human; details: LIM1215, RON not activated; 5, 10, 20 μg/ml, 48 hours; FIG. 5B
Method: as §3, §4

## cetuximab
[1]
  cleaved caspase-3 (apoptosis marker protein): increased
  p-ERK protein: reduced
[2]
  cell death by cetuximab after overexpressing RON active forms: cell death was inhibited
[3]; RON activated, 5, 10, 20 μg/ml, 48 hours, FIG. 5B
  cell death by cetuximab: not observed
[3]; RON siRNA 48 hours, then 20 μg/ml cetuximab 48 hours, FIG. 5C
  cell death by cetuximab after inhibiting RON expression: cell death was increased
[4]
  size of the tumor: significantly reduced
[5]; CaCo-2, RON not activated, 5, 10, 20 μg/ml, 48 hours, FIG. 5B
  cell death by cetuximab: observed
[5]; CaCo-2 overexpressing Δ160 and Δ155, FIG. 5F
  cell death by cetuximab after overexpressing RON active forms: cell death was inhibited
[6]
  number of colonies: decreased
EGFR; KM12C without inhibiting the RON
  activity of EGFR over time on cetuximab treatment: reduced and then increased over the time
EGFR; KM12C, RON inhibited with siRNA
  activity of EGFR over time on cetuximab treatment: rapidly reduced and then not increase
[7]
  response of cell line to cetuximab: resistance
[8]
  cell death by cetuximab in RON knockout cell line: cell death was increased
[9]; CaCo-2 overexpressing Δ160 variant of RON
  number of colonies: not almost reduced
[9]; parent CaCo-2 cell line
  number of colonies: reduced
[10]
  response of cell line to cetuximab: susceptibility
Colon cancer patients
  susceptibility to cetuximab according to the RON activity: different susceptibility
LIM1215 cell line
  cell death by cetuximab: observed
